This assay concerns the target human CRTH2 receptor (Homo sapiens (Human), UniProt Q9Y5Y4). Briefly: CRTH2 receptor radioligand binding assay (SPA, [3H]-PGD2, CHO-K1-hCRTH2 cell membranes). The settings on record: Table 1, compounds of formula Ia″; displacement of [3H]-PGD2 from CHO-K1-hCRTH2 membranes. For orientation: Loss of bound radioactivity is the signal in a displacement assay; it reports binding, not function.

Protein sequences, listed by entry. Tags and fused reporters are not part of them.
UniProt Q9Y5Y4, whole entry: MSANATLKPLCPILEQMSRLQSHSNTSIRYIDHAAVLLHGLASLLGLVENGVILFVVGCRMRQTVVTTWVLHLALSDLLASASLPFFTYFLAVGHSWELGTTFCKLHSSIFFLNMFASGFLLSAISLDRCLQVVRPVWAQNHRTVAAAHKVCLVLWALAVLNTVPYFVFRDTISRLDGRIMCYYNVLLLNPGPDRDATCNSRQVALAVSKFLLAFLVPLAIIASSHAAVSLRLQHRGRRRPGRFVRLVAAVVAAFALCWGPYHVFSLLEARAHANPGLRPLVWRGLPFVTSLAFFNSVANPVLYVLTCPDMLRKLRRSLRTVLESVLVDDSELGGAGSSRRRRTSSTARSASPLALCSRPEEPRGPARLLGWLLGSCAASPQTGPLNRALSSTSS

On to `CCc1c(C(=O)Nc2ccc(Cn3nc(C)c(CC(=O)O)c3C)c(F)c2)oc2c(F)cccc12`, for which the Ki worked out at 0.6 nM.
As for `Cc1nn(Cc2ccc(NC(=O)c3cc4ccccc4o3)cc2)c(C)c1CC(=O)O`, the Ki was found to be 0.8 nM.

As a reminder, the Ki is the equilibrium dissociation constant of an inhibitor or competing ligand from its target. A lower Ki goes with tighter binding.

Values taken from patent publication US8759386B2, “Pyrazole compounds as CRTH2 antagonists” (Boehringer Ingelheim International GmbH, priority 2011, dated 2014).
